N-glyco inh: N-linked glycosylation inhibition; D54 ERlucT glycosylation luciferase reporter, 24 h; percent of 100 nM tunicamycin response; reporter increase, % at 12.5 µM; hit rate 0.23% among 360,000;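 active = mean luciferase reporter signal, scaled so untreated is 0 and the glycosylation-blocking control 100, at or above a set limit in every replicate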;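 note: luciferase carries N-glycosylation sites so blocking glycosylation raises the light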
C2C12 statin: protects C2C12 myotubes from simvastatin toxicity. ATP luminescence, 48 h; scaled: DMSO 0, geranylgeraniol control 100. rescue of ATP level, % at 7.49 µM. hit rate 0.78% among 330,000. AID 602340;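 active = mean ATP rescue above about 67%, or every replicate alone reaching that limit, limit read from the data, passing the limit was not always enough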;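 note: myotubes were challenged with 10 µM simvastatin during compound exposure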
UUG fidelity: modulators of start codon recognition fidelity in yeast. S. cerevisiae UUG-firefly luciferase reporter, luminescence/redox ratio. activity score, % at 18.7 µM. 0.13% of 350,000 active. AID 602363;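 active = replicate mean at a twofold rise or more, about +100% in these data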;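 also: firefly luciferase made from a UUG start codon reports start codon fidelity; reporter light over untreated wells divided by growth signal over untreated wells; some hits fall short of that in this replicate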
Cneo AK release: causes C. neoformans cell lysis | adenylate kinase release luminescence, 4 h; normalised: neutral wells 0, clomiphene wells 100 | lysis activity, % at 15 µM | hit rate 0.2% among 360,000;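 active = mean lysis activity across replicates of at least 80%, whatever share of replicates individually reach that level; inactive = mean lysis activity below 80%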
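Schedule: static 4 h at 37 °C with compound, 1 h detection; system: C. neoformans cells; benchmarks: Clomiphene as positive control; buffer or medium: fresh YPD medium; measure: luminescence rise reflecting yeast cell lysis; measured by: luminescent adenylate kinase detection reagent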
miR122 inh: miR-122 inhibition in Huh7 cells; hit rate 0.3% among 340,000; AID 602342; Huh7 miR-122 Renilla luciferase sensor, 48 h; neutral wells = 0, positive control = 100; activation (reporter increase), % at 12.5 µM;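 active = mean replicate activation score at least 90 and every replicate individually at or above 90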;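 note: higher luciferase means less miR-122 activity so hits act as miR-122 inhibitors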
Numbers stand for hits; ! = not active in a repeat; [ ] = remark or other dose. Hits are enriched below; roughly 1.2% of the tested compounds scored in any of these assays.

Results for CN(c1ccc(C(=O)NCc2ccco2)cc1)S(C)(=O)=O ?
N-glyco inh: inactive; C2C12 statin: 107; UUG fidelity: inactive; Cneo AK release: inactive; miR122 inh: inactive

What do the screens show for `CCCN(C)C[C@H]1OCc2cnnn2CCCC(=O)N([C@H](C)CO)C[C@H]1C`?
C2C12 statin: inactive; UUG fidelity: inactive; Cneo AK release: inactive; miR122 inh: inactive

Results for COc1ccc(/C=N/NS(=O)(=O)c2ccc(C)cc2)cc1OC(=O)c1ccccc1 ?
N-glyco inh: inactive; C2C12 statin: inactive; UUG fidelity: inactive; Cneo AK release: inactive; miR122 inh: inactive

How did COc1ccc(/C=N/NS(=O)(=O)c2ccccc2)cc1OC(=O)c1ccc(C)cc1 do in these assays?
N-glyco inh: inactive; C2C12 statin: 110; UUG fidelity: inactive; Cneo AK release: inactive; miR122 inh: inactive

Results for C[C@H](CO)N1C[C@H](C)[C@H](CN(C)S(=O)(=O)c2ccc(F)cc2)Oc2ncc(-c3ccccc3)cc2C1=O ?
C2C12 statin: inactive; miR122 inh: inactive

How did O=C(NCc1nc2ccccc2[nH]1)C1=C[C@H](C2CC2)C[C@H](OCc2ccc(CO)cc2)O1 do in these assays?
N-glyco inh: inactive; C2C12 statin: inactive; UUG fidelity: inactive; Cneo AK release: 81!; miR122 inh: inactive

Results for O=C(NCc1nc2ccccc2[nH]1)C1=C[C@@H](C2CC2)C[C@@H](OCc2ccc(CO)cc2)O1 ?
N-glyco inh: inactive; C2C12 statin: inactive; UUG fidelity: inactive; Cneo AK release: inactive; miR122 inh: inactive

How did COc1ccc(NC(=O)Nc2ccc3c(c2)C(=O)N([C@H](C)CO)C[C@@H](C)[C@H](CN(C)S(=O)(=O)c2ccc(Cl)cc2)OCCCC[C@@H](C)O3)cc1 do in these assays?
UUG fidelity: inactive; Cneo AK release: 87; miR122 inh: inactive

Results for Cc1noc(C)c1S(=O)(=O)Nc1ccc2c(c1)C(=O)N([C@@H](C)CO)C[C@@H](C)[C@@H](CN(C)S(=O)(=O)c1ccc(Cl)cc1)OCCCC[C@H](C)O2 ?
C2C12 statin: 140; UUG fidelity: inactive; Cneo AK release: inactive; miR122 inh: inactive

How did C[C@@H]1CCCCO[C@H](CN(C)S(=O)(=O)c2ccc(Cl)cc2)[C@H](C)CN([C@@H](C)CO)C(=O)c2cc(NS(C)(=O)=O)ccc2O1 do in these assays?
C2C12 statin: 163; UUG fidelity: inactive; Cneo AK release: inactive; miR122 inh: inactive

Results for COc1ccc(NC(=O)Nc2ccc3c(c2)C(=O)N([C@@H](C)CO)C[C@H](C)[C@@H](CN(C)S(=O)(=O)c2ccc(Cl)cc2)OCCCC[C@@H](C)O3)cc1 ?
UUG fidelity: inactive; Cneo AK release: inactive; miR122 inh: inactive

Results for Cc1noc(C)c1S(=O)(=O)Nc1ccc2c(c1)C(=O)N([C@@H](C)CO)C[C@@H](C)[C@H](CN(C)S(=O)(=O)c1ccc(Cl)cc1)OCCCC[C@@H](C)O2 ?
C2C12 statin: inactive; UUG fidelity: inactive; Cneo AK release: inactive; miR122 inh: inactive

What do the screens show for `Cc1ccc(S(=O)(=O)Nc2ccc3c(c2)C(=O)N([C@@H](C)CO)C[C@@H](C)[C@@H](CN(C)S(=O)(=O)c2ccc(Cl)cc2)OCCCC[C@H](C)O3)cc1`?
UUG fidelity: inactive; Cneo AK release: 101; miR122 inh: inactive

What do the screens show for `CC(C)NC(=O)N(C)C[C@H]1Oc2ccc(NC(=O)CCC(F)(F)F)cc2C(=O)N([C@@H](C)CO)C[C@@H]1C`?
C2C12 statin: inactive; UUG fidelity: inactive; Cneo AK release: inactive; miR122 inh: inactive

What do the screens show for `CCOC(=O)CN1C(=O)C2(OCCCO2)c2cc(Br)ccc21`?
N-glyco inh: inactive; C2C12 statin: inactive; UUG fidelity: inactive; Cneo AK release: inactive; miR122 inh: inactive

What do the screens show for `O=C(C[C@H]1CC[C@@H]2[C@H](COC[C@H](O)CN2S(=O)(=O)c2cccc(Cl)c2)O1)N1CCOCC1`?
C2C12 statin: inactive; UUG fidelity: inactive; Cneo AK release: inactive; miR122 inh: inactive

How did C[C@H]1CN([C@@H](C)CO)C(=O)c2cccc(NC(=O)C3CCCCC3)c2O[C@@H]1CN(C)S(=O)(=O)c1ccc(Cl)cc1 do in these assays?
C2C12 statin: 119; UUG fidelity: inactive; Cneo AK release: inactive; miR122 inh: inactive

What do the screens show for `Cc1ccc(S(=O)(=O)N(C)C[C@H]2Oc3c(cccc3N(C)C)C(=O)N([C@@H](C)CO)C[C@H]2C)cc1`?
C2C12 statin: inactive; UUG fidelity: inactive; Cneo AK release: 90; miR122 inh: inactive

How did C[C@H](CO)N1C[C@H](C)[C@@H](CN(C)S(=O)(=O)c2ccc(Cl)cc2)Oc2c(NC(=O)C3CCCCC3)cccc2C1=O do in these assays?
C2C12 statin: 143; UUG fidelity: inactive; Cneo AK release: inactive; miR122 inh: inactive

How did C[C@@H]1CN([C@@H](C)CO)C(=O)c2cccc(NS(=O)(=O)c3ccc(F)cc3)c2O[C@H]1CN(C)S(=O)(=O)c1ccc(Cl)cc1 do in these assays?
UUG fidelity: inactive; Cneo AK release: 110; miR122 inh: inactive

How did C[C@H](CO)N1C[C@H](C)[C@H](CN(C)S(=O)(=O)c2ccc(Cl)cc2)Oc2c(NC(=O)C3CCCCC3)cccc2C1=O do in these assays?
C2C12 statin: inactive; UUG fidelity: inactive; Cneo AK release: inactive; miR122 inh: inactive

How did COc1ccc(S(=O)(=O)Nc2ccc3c(c2)C(=O)N([C@H](C)CO)C[C@@H](C)[C@H](CN(C)S(=O)(=O)c2cn(C)cn2)OCCCC[C@@H](C)O3)cc1 do in these assays?
UUG fidelity: inactive; Cneo AK release: inactive; miR122 inh: inactive

Results for COc1ccc(N2CCOCC2)c(NC(=O)c2cccnc2)c1 ?
N-glyco inh: inactive; C2C12 statin: inactive; UUG fidelity: inactive; Cneo AK release: inactive; miR122 inh: inactive

How did CO[C@@H]1CN(C)C(=O)c2cc(NC(=O)C3CC3)ccc2OC[C@H](C)N(C(=O)Cc2ccccn2)C[C@H]1C do in these assays?
C2C12 statin: inactive; UUG fidelity: inactive; Cneo AK release: inactive

What do the screens show for `COc1ccc(-c2cnc3c(c2)C(=O)N([C@@H](C)CO)C[C@H](C)[C@H](CN(C)C(=O)Cc2ccncc2)O3)cc1`?
C2C12 statin: inactive; UUG fidelity: inactive; Cneo AK release: inactive; miR122 inh: inactive

How did Cc1noc(C)c1S(=O)(=O)N(C)C[C@@H]1Oc2c(NC(=O)C3CCCCC3)cccc2C(=O)N([C@H](C)CO)C[C@@H]1C do in these assays?
C2C12 statin: inactive; UUG fidelity: inactive; Cneo AK release: inactive; miR122 inh: 197[16.7 µM]

How did Cc1noc(C)c1S(=O)(=O)N(C)C[C@H]1Oc2c(NC(=O)C3CCCCC3)cccc2C(=O)N([C@H](C)CO)C[C@H]1C do in these assays?
C2C12 statin: inactive; UUG fidelity: inactive; Cneo AK release: inactive; miR122 inh: inactive

How did CC(=O)Nc1ccc2c(c1)C(=O)N(C)[C@H]1CC[C@@H](CC(=O)NCc3ccc(F)cc3)O[C@@H]1CO2 do in these assays?
C2C12 statin: inactive; UUG fidelity: inactive; Cneo AK release: inactive; miR122 inh: inactive

Compound activity: PubChem, Broad Institute
